{
  "sequences": {"note": "Protein sequences, listed by entry. Tags and fused reporters are not part of them.", "UniProt Q8IUQ4, whole entry": "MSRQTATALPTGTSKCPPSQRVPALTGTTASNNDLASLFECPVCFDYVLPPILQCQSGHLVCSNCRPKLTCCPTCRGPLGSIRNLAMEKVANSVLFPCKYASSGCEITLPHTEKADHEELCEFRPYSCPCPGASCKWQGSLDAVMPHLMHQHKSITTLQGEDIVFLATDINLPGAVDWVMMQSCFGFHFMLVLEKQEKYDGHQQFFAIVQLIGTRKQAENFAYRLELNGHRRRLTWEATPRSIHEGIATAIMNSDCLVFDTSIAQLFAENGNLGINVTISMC", "UniProt Q15149, whole entry partner": "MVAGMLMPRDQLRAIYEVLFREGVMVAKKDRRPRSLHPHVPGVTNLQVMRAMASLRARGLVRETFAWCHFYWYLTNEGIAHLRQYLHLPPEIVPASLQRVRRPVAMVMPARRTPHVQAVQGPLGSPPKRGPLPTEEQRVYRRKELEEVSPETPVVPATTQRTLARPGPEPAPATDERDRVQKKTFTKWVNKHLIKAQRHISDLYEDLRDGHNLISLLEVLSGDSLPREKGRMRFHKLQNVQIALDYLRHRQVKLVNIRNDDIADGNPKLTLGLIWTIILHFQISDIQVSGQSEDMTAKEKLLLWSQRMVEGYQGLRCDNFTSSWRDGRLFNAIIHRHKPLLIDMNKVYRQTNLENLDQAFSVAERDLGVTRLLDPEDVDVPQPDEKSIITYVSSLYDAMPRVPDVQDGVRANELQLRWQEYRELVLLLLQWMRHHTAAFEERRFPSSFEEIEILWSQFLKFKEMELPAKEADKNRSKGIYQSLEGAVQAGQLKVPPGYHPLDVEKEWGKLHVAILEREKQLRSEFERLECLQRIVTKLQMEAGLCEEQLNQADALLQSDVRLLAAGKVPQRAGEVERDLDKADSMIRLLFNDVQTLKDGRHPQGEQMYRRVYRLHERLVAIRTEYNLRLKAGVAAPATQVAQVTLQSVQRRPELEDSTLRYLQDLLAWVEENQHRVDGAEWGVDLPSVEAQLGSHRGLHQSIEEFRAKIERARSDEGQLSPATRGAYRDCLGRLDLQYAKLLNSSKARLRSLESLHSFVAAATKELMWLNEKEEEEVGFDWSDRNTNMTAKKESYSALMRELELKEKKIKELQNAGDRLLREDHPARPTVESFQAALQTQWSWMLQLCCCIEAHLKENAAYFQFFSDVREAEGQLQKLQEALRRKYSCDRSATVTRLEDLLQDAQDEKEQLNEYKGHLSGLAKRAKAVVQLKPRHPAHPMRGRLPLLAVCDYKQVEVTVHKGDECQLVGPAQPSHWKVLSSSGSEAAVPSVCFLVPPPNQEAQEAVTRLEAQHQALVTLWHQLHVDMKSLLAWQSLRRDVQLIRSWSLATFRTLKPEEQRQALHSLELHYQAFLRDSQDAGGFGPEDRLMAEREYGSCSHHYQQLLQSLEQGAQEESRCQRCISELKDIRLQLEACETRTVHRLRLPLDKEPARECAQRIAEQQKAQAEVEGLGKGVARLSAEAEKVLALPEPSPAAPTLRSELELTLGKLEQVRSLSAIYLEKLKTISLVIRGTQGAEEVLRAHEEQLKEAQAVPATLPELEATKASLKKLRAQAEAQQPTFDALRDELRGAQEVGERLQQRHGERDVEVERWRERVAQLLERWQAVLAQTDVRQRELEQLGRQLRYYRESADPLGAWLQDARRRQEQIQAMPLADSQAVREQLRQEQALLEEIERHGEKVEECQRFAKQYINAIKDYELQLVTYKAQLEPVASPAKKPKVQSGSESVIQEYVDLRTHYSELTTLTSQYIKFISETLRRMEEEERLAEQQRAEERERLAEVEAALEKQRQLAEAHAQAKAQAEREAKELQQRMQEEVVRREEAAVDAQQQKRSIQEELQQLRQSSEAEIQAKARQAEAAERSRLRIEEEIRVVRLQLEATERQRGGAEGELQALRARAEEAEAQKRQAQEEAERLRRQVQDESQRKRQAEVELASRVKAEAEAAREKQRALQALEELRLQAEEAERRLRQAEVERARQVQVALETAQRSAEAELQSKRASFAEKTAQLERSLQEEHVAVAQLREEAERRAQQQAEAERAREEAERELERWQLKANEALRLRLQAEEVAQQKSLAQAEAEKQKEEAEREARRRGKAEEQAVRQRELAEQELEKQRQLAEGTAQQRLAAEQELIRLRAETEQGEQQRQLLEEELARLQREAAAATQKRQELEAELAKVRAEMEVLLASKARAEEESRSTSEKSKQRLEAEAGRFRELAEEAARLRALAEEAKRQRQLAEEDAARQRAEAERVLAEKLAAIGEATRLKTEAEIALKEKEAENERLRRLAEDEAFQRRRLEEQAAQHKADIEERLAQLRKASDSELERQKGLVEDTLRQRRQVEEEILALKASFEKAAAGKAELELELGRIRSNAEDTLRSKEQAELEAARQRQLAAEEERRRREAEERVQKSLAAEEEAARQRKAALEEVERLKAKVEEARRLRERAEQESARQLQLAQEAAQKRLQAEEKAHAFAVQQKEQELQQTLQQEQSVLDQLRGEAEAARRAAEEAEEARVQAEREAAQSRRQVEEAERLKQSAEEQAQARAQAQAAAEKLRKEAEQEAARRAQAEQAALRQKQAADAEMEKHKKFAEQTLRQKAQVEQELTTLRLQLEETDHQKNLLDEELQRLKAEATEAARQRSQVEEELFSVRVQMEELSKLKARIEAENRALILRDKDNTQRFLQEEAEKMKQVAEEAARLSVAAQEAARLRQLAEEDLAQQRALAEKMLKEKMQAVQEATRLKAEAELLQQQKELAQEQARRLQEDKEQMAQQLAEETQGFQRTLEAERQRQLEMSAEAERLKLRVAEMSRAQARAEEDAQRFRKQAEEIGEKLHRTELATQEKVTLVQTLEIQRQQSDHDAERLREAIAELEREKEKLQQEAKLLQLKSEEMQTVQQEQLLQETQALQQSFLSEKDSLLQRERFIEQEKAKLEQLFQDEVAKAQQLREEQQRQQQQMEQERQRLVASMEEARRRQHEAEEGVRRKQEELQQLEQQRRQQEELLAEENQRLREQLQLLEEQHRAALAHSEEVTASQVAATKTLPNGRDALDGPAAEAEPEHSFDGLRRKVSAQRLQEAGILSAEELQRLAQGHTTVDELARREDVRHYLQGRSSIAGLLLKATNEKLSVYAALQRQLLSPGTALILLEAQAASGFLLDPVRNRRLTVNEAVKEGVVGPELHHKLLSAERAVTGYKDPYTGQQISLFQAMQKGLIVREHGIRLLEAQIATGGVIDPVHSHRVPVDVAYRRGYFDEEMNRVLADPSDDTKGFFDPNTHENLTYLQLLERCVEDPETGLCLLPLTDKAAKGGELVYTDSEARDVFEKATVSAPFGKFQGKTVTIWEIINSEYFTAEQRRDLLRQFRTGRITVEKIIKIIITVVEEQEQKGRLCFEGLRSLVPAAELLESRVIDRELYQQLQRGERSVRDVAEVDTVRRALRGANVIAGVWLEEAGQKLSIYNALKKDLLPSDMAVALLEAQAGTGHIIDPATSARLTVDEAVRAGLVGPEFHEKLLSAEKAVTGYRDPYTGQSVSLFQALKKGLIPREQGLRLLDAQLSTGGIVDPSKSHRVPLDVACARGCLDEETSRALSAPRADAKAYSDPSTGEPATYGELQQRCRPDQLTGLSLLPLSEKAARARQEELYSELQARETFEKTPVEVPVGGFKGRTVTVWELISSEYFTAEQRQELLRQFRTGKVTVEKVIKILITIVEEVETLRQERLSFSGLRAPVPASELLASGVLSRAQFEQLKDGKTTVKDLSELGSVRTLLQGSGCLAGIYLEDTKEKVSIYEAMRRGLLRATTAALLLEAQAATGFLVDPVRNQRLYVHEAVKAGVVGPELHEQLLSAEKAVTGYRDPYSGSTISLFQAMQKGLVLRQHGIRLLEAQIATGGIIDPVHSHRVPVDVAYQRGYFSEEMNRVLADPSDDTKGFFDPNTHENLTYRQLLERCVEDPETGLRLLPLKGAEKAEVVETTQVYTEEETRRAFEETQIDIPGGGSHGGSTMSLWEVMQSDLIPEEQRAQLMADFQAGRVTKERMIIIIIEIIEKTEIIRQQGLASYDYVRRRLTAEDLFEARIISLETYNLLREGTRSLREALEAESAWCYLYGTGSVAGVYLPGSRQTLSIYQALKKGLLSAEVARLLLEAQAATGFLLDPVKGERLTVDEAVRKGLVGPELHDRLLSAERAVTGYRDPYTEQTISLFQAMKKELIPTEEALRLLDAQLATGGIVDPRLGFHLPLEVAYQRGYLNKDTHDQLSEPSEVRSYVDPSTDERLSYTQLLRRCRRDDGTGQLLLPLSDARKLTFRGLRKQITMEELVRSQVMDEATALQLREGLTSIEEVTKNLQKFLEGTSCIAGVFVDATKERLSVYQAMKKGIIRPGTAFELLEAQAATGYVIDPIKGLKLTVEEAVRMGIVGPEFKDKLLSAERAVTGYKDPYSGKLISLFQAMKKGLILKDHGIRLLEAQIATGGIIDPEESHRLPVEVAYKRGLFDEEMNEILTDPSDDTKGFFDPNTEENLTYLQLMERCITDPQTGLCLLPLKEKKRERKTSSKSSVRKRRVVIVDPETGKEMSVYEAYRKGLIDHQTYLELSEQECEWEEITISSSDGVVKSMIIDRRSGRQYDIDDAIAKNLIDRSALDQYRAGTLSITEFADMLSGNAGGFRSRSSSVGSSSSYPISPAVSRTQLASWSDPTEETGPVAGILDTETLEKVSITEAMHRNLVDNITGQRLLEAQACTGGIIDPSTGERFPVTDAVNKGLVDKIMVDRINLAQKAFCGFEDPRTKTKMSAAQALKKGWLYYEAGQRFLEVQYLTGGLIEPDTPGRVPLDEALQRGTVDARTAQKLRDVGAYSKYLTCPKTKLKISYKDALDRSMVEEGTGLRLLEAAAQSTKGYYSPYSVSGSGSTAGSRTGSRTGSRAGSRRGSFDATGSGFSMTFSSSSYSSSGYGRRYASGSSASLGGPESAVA"},
  "source": "PubChem BioAssay AID1817",
  "about": "(Sanford-Burnham Center for Chemical Genomics, 2009)",
  "note": "The entries are a selection whose mix differs from that of the whole data set. Measured potencies and affinities stand elsewhere. Some results for these compounds are left out of this collection, so the calls shown say nothing about other tests. Activity calls are given as the source filed them.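 How the source made its calls: active means displacement of at least 50% at 20 µM, with a fluorescence ratio check between 0.3 and a set limit; inactive means the rest.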",
  "data": [
    {"target": "E3 ubiquitin-protein ligase SIAH1 (Homo sapiens) (UniProt Q8IUQ4)", "experiment": "blockers of Siah-1 interaction with plectin peptide – biochemical, fluorescence polarization, rhodamine-plectin, uHTS, primary screen (AID 1817);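 further: plate controls were Siah plus tracer with DMSO for no effect and tracer alone without Siah for full effect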", "details": "Siah-1 / rhodamine-plectin peptide fluorescence polarization; at 20 µM; active compounds read high", "values": [
      {"compound": "CN1[C@@H]2CC[C@H]1CC(OC(=O)C(O)(c1ccccc1)c1ccccc1)C2", "note": "(some centres undefined)", "displacement": "inactive: 5.5%"},
      {"compound": "O=C(NCC1(N2CCCCC2)CCCCC1)c1cc([N+](=O)[O-])ccc1Cl", "displacement": "inactive: 0.9%"},
      {"compound": "Cc1ccc(C(=O)NCC2(N3CCCCC3)CCCCC2)cc1", "displacement": "inactive: 9.6%"},
      {"compound": "CC(C)N1C(=O)CC2(CCN(CCOC(=O)C(O)(c3ccccc3)c3ccccc3)CC2)C1=O", "displacement": "inactive: 1.5%"},
      {"compound": "CCN(CC)CC(C)C(C)OC(=O)C(O)(c1ccccc1)c1ccccc1", "note": "(centres undefined)", "displacement": "inactive: 5.9%"},
      {"compound": "COc1cc(SC)ccc1C(=O)NCC1(N(C)C)CCCCC1", "displacement": "inactive: 3%"},
      {"compound": "Cc1ccccc1C(=O)NCC1(N2CCCCC2)CCCCC1", "displacement": "inactive: 1.6%"},
      {"compound": "CN(C)C1CCCC1OC(=O)C(O)(c1ccccc1)c1ccccc1", "note": "(centres undefined)", "displacement": "inactive: -0.7%"},
      {"compound": "CN(C)c1ccc(C(=O)NCC2(N(C)C)CCCCC2)cc1", "displacement": "inactive: 8.2%"},
      {"compound": "Cc1cc(C(=O)NCC2(N3CCCCC3)CCCCC2)ccc1[N+](=O)[O-]", "displacement": "inactive: -3.1%"},
      {"compound": "CCN1CCCC(OC(=O)C2(O)c3ccccc3C=Cc3ccccc32)C1", "note": "(centres undefined)", "displacement": "inactive: 7.8%"},
      {"compound": "O=C(NCC1(N2CCCCC2)CCCCC1)c1cccc(Br)c1", "displacement": "inactive: -0.2%"},
      {"compound": "COc1ccc(C(=O)NCC2(N(C)C)CCCCC2)cc1", "displacement": "inactive: -2.3%"},
      {"compound": "C=CCN1CCN(CCOC(=O)C(O)(c2ccccc2)c2ccccc2)CC1", "displacement": "inactive: -0.5%"},
      {"compound": "O=C(NCC1(N2CCCCC2)CCCCC1)c1cc(F)c(F)cc1Cl", "displacement": "inactive: 6.4%"},
      {"compound": "COc1cc(C(=O)NCC2(N(C)C)CCCCC2)c([N+](=O)[O-])cc1OC", "displacement": "inactive: -6.1%"},
      {"compound": "CN(C)C1(CNC(=O)c2ccc(Br)cc2)CCCCC1", "displacement": "inactive: -3.6%"},
      {"compound": "O=C(NCC1(N2CCCCC2)CCCCC1)c1cccc(Cl)c1", "displacement": "inactive: -1.2%"},
      {"compound": "COc1cccc(C(=O)NCC2(N3CCCCC3)CCCCC2)c1", "displacement": "inactive: -4.8%"},
      {"compound": "COc1ccc(Cl)cc1C(=O)NCC1(N(C)C)CCCCC1", "displacement": "inactive: 5.6%"},
      {"compound": "O=C(OC1CN2CCC1CC2)C(CO)(c1ccccc1)c1ccccc1", "note": "(centres undefined)", "displacement": "inactive: -0.3%"},
      {"compound": "CN(C)c1cccc(C(=O)NCC2(N(C)C)CCCCC2)c1", "displacement": "inactive: -1%"},
      {"compound": "CC(C)Oc1ccc(C(=O)NCC2(N(C)C)CCCCC2)cc1", "displacement": "inactive: -0.2%"},
      {"compound": "COc1ccc(Br)c(C(=O)NCC2(N3CCCCC3)CCCCC2)c1", "displacement": "inactive: -1.2%"}
    ]}
  ]
}
